High-throughput results (PubChem)
The list is not random: actives were taken first. Their share in the collection is about 2.5%.
ClpP mod = qHTS Assay for Activators of ClpP. ATP-dependent Clp protease proteolytic subunit (Bacillus subtilis (strain 168)), P80244. 340,000 compounds, 1.9% hits. purified B. subtilis ClpP, FRET peptide cleavage, 20 min. Potency, µM (highest dose often 57.5 µM), for the others: at the highest dose activity change, negative = active; active = well fitted falling curve with a large enough effect; inconclusive = small, poorly fitted or top-dose-only effect; inactive = no such curve, though single readings can be large or run the other way; also: potency is read from the fitted curve at half-maximal effect; the source files actives as falling curves though it sought activators and does not explain the sign; nearly all actives have a fitted effect of over 65% in size
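Buffer: 100 mM Tris/HCl pH8, 100 mM KCl, 0.05% low protease BSA, 2.5% glycerol, 0.01% Tween-20. ClpP 10 microg/mL final; 20 min RT; delta FRET normalized to ADEP and DMSO controls.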
miR-21 FLuc = raises the signal of a miR-21 reporter; HeLa miR-21 FLuc reporter, luciferase, 48 h; Potency, µM (top dose mostly 38.3 µM), for inactives: at the highest dose reporter change, positive = more light; AID 2288; 340,000 tested, under 10 active; active = well fitted rising curve with a large enough effect; inconclusive = small, poorly fitted or top-dose-only effect; inactive = no such curve, though single readings can be large or run the other way;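 note: % of control where 0% means no effect; miR-21 action dims this reporter so a rising signal means less miR-21 action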
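Luminescence from a firefly luciferase reporter carrying a miR-21 binding site downstream, stably expressed under a CMV promoter in HeLa cells that make miR-21 endogenously, reports miRNA modulation after 48 h compound exposure up to approximately 40uM final.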
Apoferritin bind = candidate novel general anesthetic via apoferritin binding | Potency, µM (series often up to 77.5 µM), inactives show at the highest dose activity change, negative = displacement, most hits filed as inhibitors | apoferritin/1-aminoanthracene competitive binding, fluorescence | AID 485281 | 350,000 compounds, 0.074% hits; also: potency is read from the fitted curve at half-maximal effect; % is scaled to controls: 0 for no effect and ±100 for the full control effect; nearly all actives have a fitted effect of over 20% in size
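10 uM apoferritin + 50% sat. 1-AMA, PBS; cpd 10 min RT; Ex380/Em535 endpoint; normalized to free probe vs complex; 4-param Hill fit; propofol titration as pos. ctrl.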
TrxR1 inh = inhibitors of rat thioredoxin reductase 1; O89049; Potency, µM (top dose mostly 114 µM), for the others: at the top dose activity change, negative = inhibition, actives largely listed as inhibitors; recombinant rTrxR1, NADPH fluorescence consumption, selenite substrate; 390,000 compounds, 1% hits; also: potency is read from the fitted curve at half-maximal effect; % is scaled to controls: 0 for no effect and ±100 for the full control effect; nearly all actives have a fitted effect of over 65% in size
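Rat TrxR1 (90 nM in the dispensed reagent) was pre-reduced with 400 uM NADPH for 5 min at room temperature, then incubated with compound for 15 min. After 400 uM selenite was added, NADPH fluorescence (Ex 340/Em 450 nm) was followed for 8 min.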
TrxR1 substrate = substrates of rat thioredoxin reductase 1; Potency, µM (doses to about 114 µM), for the others: top-dose activity change, negative = substrate turnover; 390,000 compounds, 0.01% hits; O89049; purified TrxR1 substrate turnover, NADPH consumption readout; also: potency is read from the fitted curve at half-maximal effect; % is scaled to controls: 0 for no effect and ±100 for the full control effect; nearly all actives have a fitted effect of over 50% in size
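Rat TrxR1, dispensed at 90 nM, was prereduced with 400 uM NADPH (final) for 5 min at ~22 deg C, then incubated with compound 15 min before 400 uM selenite. A first-read NADPH fluorescence drop versus no-compound background flagged substrates.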
Numbers without * were called inactive; u = inconclusive; x = no result; [ ] = another dose, or the depositor's remark. Unless noted, calls follow the shape of the dose curve; as a rule, active = well fitted curve in the direction sought with a large enough effect; inconclusive = small, poorly fitted or top-dose-only effect, or another doubt; inactive = no such curve, though single readings can be large; an effect the other way counts as inactive or inconclusive.

Amino acid sequences for entries named in this document (tags omitted).
ATP-dependent Clp protease proteolytic subunit (Bacillus subtilis (strain 168)), P80244, UniProt P80244, whole entry, looked up: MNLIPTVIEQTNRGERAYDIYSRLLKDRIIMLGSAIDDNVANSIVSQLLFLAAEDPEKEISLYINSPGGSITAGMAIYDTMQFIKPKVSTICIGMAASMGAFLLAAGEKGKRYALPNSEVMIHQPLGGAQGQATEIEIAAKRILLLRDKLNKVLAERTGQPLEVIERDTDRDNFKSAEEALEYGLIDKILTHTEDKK

Abbreviations – A = ClpP mod; B = miR-21 FLuc; C = Apoferritin bind; D = TrxR1 inh; E = TrxR1 substrate
1) COc1ccc(C2Nc3ccccc3-c3cc(C)nn32)c(OC)c1 (stereo not drawn)
  A: 31.6µM*	B: -12.3%	C: -10.1%	D: 9.9%[57.1 µM]	E: 11.2%[57.1 µM]
2) Cc1[nH]n(-c2ncc(-c3ccccc3)s2)c(=O)c1C(c1ccc(Cl)cc1)C(C#N)C#N (stereo not drawn)
  A: 2.4%	B: -5.3%	C: -12.4%	D: 22.4µM*	E: -7.5%
3) Cc1[nH]n(-c2ccccc2)c(=O)c1C(c1ccccc1[N+](=O)[O-])C(C#N)C#N (stereo not drawn)
  A: -9.7%	B: 0.3%	C: 0.1%	D: u	E: -3.9%
4) COc1cccc(CNC(=O)Cn2c(=O)n3nc(-c4cccc(C)c4)nc3c3ccccc32)c1
  A: -6.6%	B: -25.5%	C: -10.5%	D: 14.6%[57.1 µM]	E: 0.3%[57.1 µM]
5) Cc1ccc(C(=O)c2c3ccc(C(F)(F)F)cc3[n+]([O-])n2CCCN)cc1
  A: -3.7%	B: x	C: x	D: -38.6%	E: 8.3%[57.1 µM]
6) Cc1ccc(C(=O)c2c3ccc([N+](=O)[O-])cc3[n+]([O-])n2CCCN)cc1
  A: 1.1%	B: x	C: x	D: 56.2µM*	E: 2.3%
7) CC1(c2ccncc2)Nc2ccccc2-c2nc3ccccc3n21 (stereo not drawn)
  A: 28.2µM*	B: -28.2%	C: 0.5%	D: -1.3%	E: 103.5%
8) COc1ccc2c(c1)C1(Nc3ccccc3-c3nc4ccccc4n31)C(=O)N2 (stereo not drawn)
  A: 1.3%	B: -0.9%	C: -4.7%	D: 8.4%	E: -2.0%
9) COCc1ccc(-c2c(-c3ccsc3)oc(=O)c3cc(OC)c(OC)cc23)cc1
  A: 31.6µM*	B: x	C: x	D: 8.2%[57.1 µM]	E: 6.2%[57.1 µM]
10) COc1ccc(-c2c(-c3ccc(C#N)cc3)oc(=O)c3cc(OC)c(OC)cc23)cc1
  A: 4.0%	B: x	C: x	D: 88.2%[57.1 µM]	E: 69.1%
11) COc1ccc(-c2oc(=O)c3cc(OC)c(OC)cc3c2-c2cc(F)cc(OC)c2)cc1
  A: 20µM*	B: x	C: x	D: 26.7%[57.1 µM]	E: 16.2%[57.1 µM]
12) C=C1C=C(C(F)F)n2ncc(C(=O)N3CCN(c4ccccn4)CC3)c2N1
  A: 0.1%	B: x	C: x	D: -19.8%	E: -11.0%
13) Cc1cccc(/C=N/n2c(-c3cc(-c4ccccc4)n[nH]3)n[nH]c2=S)c1
  A: 25.1µM*	B: -36.8%	C: -21.7%	D: -14.1%	E: 2.3%
14) Cc1ccc(C)c(S(=O)(=O)c2nnn3c2nc(NCc2cccs2)c2sccc23)c1
  A: 28.2µM*	B: 14.1%	C: -7.4%	D: 20.2%	E: 8.7%
15) CCc1ccc(S(=O)(=O)c2nnn3c2nc(NCc2cccs2)c2sccc23)cc1
  A: 28.2µM*	B: -22.7%	C: 1.4%	D: 58.2%	E: 19.1%
16) Cc1ccc(C)c(S(=O)(=O)c2nnn3c2nc(NC2CCCC2)c2sccc23)c1
  A: 31.6µM*	B: -6.2%	C: -19.1%	D: 34.1%	E: 12.7%
17) O=S(=O)(c1ccc(Br)cc1)c1nnn2c1nc(NCc1cccs1)c1sccc12
  A: 28.2µM*	B: -16.2%	C: 3.2%	D: 32.7%	E: 10.4%
18) COc1cccc(-c2nn(C)c3sc(C(=O)NCc4ccc(OC)cc4OC)cc23)c1
  A: 4.2%	B: 21.5%	C: 12.1%	D: 45.2%	E: 25.2%
19) COc1cccc(-c2nn(C)c3sc(C(=O)NCc4ccc(C)o4)cc23)c1
  A: u	B: 13.4%	C: -8.2%	D: 31.6µM*	E: 31.7%
20) O=c1c2ccccc2nc2n1CCN2
  A: 15.8µM*	B: -3.5%	C: -2.6%	D: 10.8%	E: 63.1%
21) O=c1c2ccccc2nc2n1CCCS2
  A: -5.5%	B: -12.7%	C: -8.9%	D: 29.5%	E: 13.9%
22) Cn1cnc([N+](=O)[O-])c1Sc1ncccc1N
  A: 1.5%	B: 0.0%	C: -16.9%	D: 35.5µM*	E: -3.0%
23) CCN1N=C(c2ccccc2)Cn2c1nc1ccccc12
  A: 14.1µM*	B: 7.2%	C: 90.0%	D: 10.6%[57.1 µM]	E: 30.7%[57.1 µM]
24) O=S1(=O)CCN2C=C(Br)C=C(Br)C2=N1
  A: 25.1µM*	B: -3.7%	C: -2.8%	D: -15.5%	E: 62.2%
25) CCOc1ccc(Cn2c(CNS(=O)(=O)c3ccc(C(C)(C)C)cc3)nc3cccnc32)cc1
  A: -2.4%	B: 2.2%	C: -21.3%	D: 24.3%[57.1 µM]	E: 4.3%[57.1 µM]
26) CCc1ccc(NC(=O)CN2C(=O)C(c3ccc(F)cc3)=NC2(C)C)cc1
  A: 0.2%	B: -0.6%	C: -17.1%	D: 8.5%	E: 2.8%
27) CN(C(=O)COC(=O)c1ccc2ccccc2n1)c1ccccc1
  A: 10µM*	B: x	C: x	D: 13.4%	E: -3.6%[57.1 µM]
28) CN(Cc1ccccc1)C(=O)COC(=O)c1ccc2ccccc2n1
  A: 2.0%	B: -0.2%	C: u	D: 4.3%[57.1 µM]	E: 8.3%[57.1 µM]
29) Cc1ccc2nc(Cl)c3nnnn3c2c1
  A: x	B: 0.3%	C: -2.9%	D: 8.91µM*	E: 2.6%
30) Cc1ccc2nc(NCc3ccccc3Cl)c3nnnn3c2c1
  A: u	B: -3.4%	C: 7.9%	D: 16.1%	E: 23.4%

Reformatted: entries from further up.
cpd | SMILES | ClpP mod | miR-21 FLuc | Apoferritin bind | TrxR1 inh | TrxR1 substrate
28 | CN(Cc1ccccc1)C(=O)COC(=O)c1ccc2ccccc2n1 | 2.0% | -0.2% | u | 4.3%[57.1 µM] | 8.3%[57.1 µM]
29 | Cc1ccc2nc(Cl)c3nnnn3c2c1 | x | 0.3% | -2.9% | 8.91µM* | 2.6%
30 | Cc1ccc2nc(NCc3ccccc3Cl)c3nnnn3c2c1 | u | -3.4% | 7.9% | 16.1% | 23.4%
